Values quoted from earlier work as cited in article PMC7692841.

Protein sequences, listed by entry. Tags and fused reporters are not part of them. Lines headed by an entry give the natural chain unless they say otherwise; changes in a name come on top.
UniProt Q9NXR7: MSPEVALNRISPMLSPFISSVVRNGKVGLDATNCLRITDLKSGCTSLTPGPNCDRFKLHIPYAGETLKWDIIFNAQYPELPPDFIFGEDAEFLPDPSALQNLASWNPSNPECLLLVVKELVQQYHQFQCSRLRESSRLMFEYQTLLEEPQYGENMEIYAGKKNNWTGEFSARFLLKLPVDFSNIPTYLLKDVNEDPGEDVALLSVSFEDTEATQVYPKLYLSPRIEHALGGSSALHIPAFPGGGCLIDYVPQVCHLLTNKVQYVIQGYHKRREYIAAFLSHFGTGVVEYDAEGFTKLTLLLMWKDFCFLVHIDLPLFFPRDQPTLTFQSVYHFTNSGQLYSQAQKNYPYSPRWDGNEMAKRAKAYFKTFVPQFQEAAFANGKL

Target: Ubiquitin (Homo sapiens) (UniProt P0CG48)

BRE-MERIT40 complex (from UniProt Q9NXR7)
Kd: 20 µM
